Source: US4542137A, “Alkylaminodesoxy-1.4;3.6-dianhydrohexitol nitrates substituted by purine bases and pharmaceutical compositions” (priority 1980, dated 1985)

Experiments:
mongrel cats [1] = assay: inotropic and frequency-lowering heart circulation effectiveness on mongrel cats, intravenous; assay type: in vivo; parameters: heart frequency previously: unit not given beside the values; settings: cat; for blood pressure afterwards / heart frequency afterwards: after; for blood pressure previously / heart frequency previously: before; for blood pressure Δ / heart frequency Δ: change
mongrel cats [2] = assay: inotropic and frequency-lowering heart circulation effectiveness on mongrel cats, intraduodenal; assay type: in vivo; settings: cat, 5 mg/kg intraduodenal
mongrel dogs = assay: circulatory pharmacological effectiveness on narcotised dogs, intravenous; assay type: in vivo, dog
[3] = test system: isolated rat aorta preparations; assay: spasmolytic effectiveness on isolated rat aorta preparations (noradrenaline- and potassium chloride-induced contractions)

## O=[N+]([O-])O[C@H]1CO[C@H]2[C@@H]1OC[C@H]2O[N+](=O)[O-]
Mongrel cats [1]; 0.25 mg/kg i.v.
  blood pressure WD: 13.00 min
  blood pressure afterwards: 81.17
  heart frequency afterwards: 171.67
  blood pressure previously: 98.83
  heart frequency previously: 165.33
  blood pressure Δ: -17.66
  heart frequency Δ: +6.34
Mongrel cats [1]; 0.50 mg/kg i.v.
  blood pressure WD: 16.50 min
  blood pressure afterwards: 73.67
  heart frequency afterwards: 173.33
  blood pressure previously: 95.83
  heart frequency previously: 167.00
  blood pressure Δ: -22.16
  heart frequency Δ: +6.33
Mongrel cats [1]; 1.00 mg/kg i.v.
  blood pressure WD: 16.00 min
  blood pressure afterwards: 69.17
  heart frequency afterwards: 174.33
  blood pressure previously: 96.50
  heart frequency previously: 166.67
  blood pressure Δ: -27.33
  heart frequency Δ: +7.66
Mongrel cats [1]; 2.50 mg/kg i.v.
  blood pressure afterwards: 60.67
  heart frequency afterwards: 170.67
  blood pressure previously: 92.50
  heart frequency previously: 162.00
  blood pressure Δ: -31.83
  heart frequency Δ: +8.67
Mongrel cats [2]; 0 min
  blood pressure: 104.3 ± 7.7 mm. Hg
  frequency: 174.3 ± 9.3 min⁻¹
Mongrel cats [2]; 10 min
  blood pressure: 90.4 ± 12.5 mm. Hg
  frequency: 179.3 ± 7.7 min⁻¹
Mongrel cats [2]; 10 min vs 0
  blood pressure Δ: -13.9 mm. Hg
Mongrel cats [2]; 30 min
  blood pressure: 91.2 ± 10.0 mm. Hg
  dp/dt: 766 ± 807 mm sec.
  frequency: 177.7 ± 7.7 min⁻¹
Mongrel cats [2]; 30 min vs 0
  blood pressure Δ: -13.1 mm. Hg
Mongrel cats [2]; 60 min
  blood pressure: 94.2 ± 9.2 mm. Hg
  frequency: 175.0 ± 8.6 min⁻¹
Mongrel cats [2]; 60 min vs 0
  blood pressure Δ: -10.1 mm. Hg
Mongrel cats [2]; 120 min
  blood pressure: 95.0 ± 9.6 mm. Hg
  frequency: 166.7 ± 9.4 min⁻¹
Mongrel dogs; dog i.v. ISDN/9c 1, 1d 0.5 mg/kg, 2 min
  PAP: average pressure in the A. pulmonalis: 11.1 mm.Hg
Mongrel dogs; dog i.v. ISDN/9c 1, 1d 0.5 mg/kg, 5 min
  PAP: average pressure in the A. pulmonalis: 11.5 mm.Hg
Mongrel dogs; dog i.v. ISDN/9c 1, 1d 0.5 mg/kg, 7 min
  PAP: average pressure in the A. pulmonalis: 12.6 mm.Hg
Mongrel dogs; dog i.v. ISDN/9c 1, 1d 0.5 mg/kg, 10 min
  PAP: average pressure in the A. pulmonalis: 12.6 mm.Hg
Mongrel dogs; dog i.v. ISDN/9c 1, 1d 0.5 mg/kg, 15 min
  PAP: average pressure in the A. pulmonalis: 12.7 mm.Hg
Mongrel dogs; dog i.v. ISDN/9c 1, 1d 0.5 mg/kg, 20 min
  PAP: average pressure in the A. pulmonalis: 12.6 mm.Hg
Mongrel dogs; dog i.v. ISDN/9c 1, 1d 0.5 mg/kg, 25 min
  PAP: average pressure in the A. pulmonalis: 13.3 mm.Hg
Mongrel dogs; dog i.v. ISDN/9c 1, 1d 0.5 mg/kg, 30 min
  PAP: average pressure in the A. pulmonalis: 13.5 mm.Hg
Mongrel dogs; dog i.v. ISDN/9c 1, 1d 0.5 mg/kg, 40 min
  PAP: average pressure in the A. pulmonalis: 14.0 mm.Hg
Mongrel dogs; dog i.v. ISDN/9c 1, 1d 0.5 mg/kg, 50 min
  PAP: average pressure in the A. pulmonalis: 14.0 mm.Hg
Mongrel dogs; dog i.v. ISDN/9c 1, 1d 0.5 mg/kg, 90 min
  PAP: average pressure in the A. pulmonalis: 14.6 mm.Hg
Mongrel dogs; dog i.v. ISDN/9c 1, 1d 0.5 mg/kg, 120 min
  PAP: average pressure in the A. pulmonalis: 15.0 mm.Hg
Mongrel dogs; dog i.v. ISDN/9c 1, 1d 0.5 mg/kg, 150 min
  PAP: average pressure in the A. pulmonalis: 14.6 mm.Hg
Mongrel dogs; dog i.v. ISDN/9c 1, 1d 0.5 mg/kg, 180 min
  PAP: average pressure in the A. pulmonalis: 15.5 mm.Hg
Mongrel dogs; dog i.v., before administration (v)
  PAP: average pressure in the A. pulmonalis: 14.3 mm.Hg
[3]; read-out: ED50 for spasmolytic action, Noradrenaline spasm (50% inhibition), noradrenaline-induced contraction
  IC50: 1300 nM
[3]; read-out: ED50 for spasmolytic action, potassium chloride spasm (50% inhibition), potassium chloride-induced contraction
  IC50: 3100 nM

Where two headings read alike, the source gives them in different places.
